Assay results taken from patent US20090137572A1, “2-substituted-4-heteroaryl-pyrimidines useful for the treatment of proliferative disorders” (priority 2004, published 2009).

Sequences of proteins named here, by UniProt entry; tags and fusion partners are left off.
UniProt O14965, whole entry: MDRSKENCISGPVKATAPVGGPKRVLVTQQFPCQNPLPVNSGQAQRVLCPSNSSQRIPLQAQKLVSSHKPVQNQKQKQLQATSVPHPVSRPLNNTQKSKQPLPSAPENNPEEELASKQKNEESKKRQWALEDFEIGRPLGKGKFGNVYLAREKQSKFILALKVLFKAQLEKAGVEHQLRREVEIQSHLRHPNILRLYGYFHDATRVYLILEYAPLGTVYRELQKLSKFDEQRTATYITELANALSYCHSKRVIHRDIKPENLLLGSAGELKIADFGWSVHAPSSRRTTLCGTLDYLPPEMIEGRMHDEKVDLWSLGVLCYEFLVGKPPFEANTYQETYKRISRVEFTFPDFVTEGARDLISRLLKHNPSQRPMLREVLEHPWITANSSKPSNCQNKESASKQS

Target: Aurora A kinase (Homo sapiens, UniProt O14965)
Assay: Aurora-A (human) kinase assay (Kemptide substrate)
Type: biochemical
Settings: pIC50 is -log(IC50, M); 15 μM ATP

CC(=O)N1CCN(c2ccc(Nc3nccc(-c4sc(-c5cccnc5)nc4C)n3)cc2)CC1
Kinase Inhibition pIC50 Aurora A kinase: 7.3

COCCOc1cc(C(F)(F)F)cnc1-c1nc(C)c(-c2ccnc(Nc3ccc(N4CCOCC4)cc3)n2)s1
Kinase Inhibition pIC50 Aurora A kinase: 6.5
